The target in the assay is β2 receptors of the guinea pig trachea (Cavia porcellus, UniProt Q8K4Z4). In words: Antagonist effect on relaxation of trachea by isoproterenol (pA2).

Chains of the proteins cited; added tags and fusions are not shown.
UniProt Q8K4Z4, whole entry: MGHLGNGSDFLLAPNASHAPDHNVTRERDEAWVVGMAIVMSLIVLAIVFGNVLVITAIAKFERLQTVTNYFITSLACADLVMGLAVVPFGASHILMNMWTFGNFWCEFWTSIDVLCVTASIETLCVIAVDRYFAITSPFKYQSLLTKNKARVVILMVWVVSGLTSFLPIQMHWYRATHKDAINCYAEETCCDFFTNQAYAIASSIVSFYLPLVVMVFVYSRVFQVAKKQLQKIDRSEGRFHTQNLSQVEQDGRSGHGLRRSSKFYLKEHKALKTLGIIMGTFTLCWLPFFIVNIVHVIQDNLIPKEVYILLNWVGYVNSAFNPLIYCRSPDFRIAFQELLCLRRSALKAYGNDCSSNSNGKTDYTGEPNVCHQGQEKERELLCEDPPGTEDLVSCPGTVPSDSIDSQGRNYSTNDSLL

In general, Kb refers to the equilibrium dissociation constant of an antagonist, usually derived from a functional assay.

Take `CC(C)NCC(O)COc1ccc(CC(N)=O)cc1` (stereo not shown) [Atenolol, reference compound]: the Kb was 2290 nM.

Values taken from patent US4338330A, “Benzimidazole derivatives, their use, and compositions containing these derivatives” (Continental Pharma, priority 1979, dated 1982).
